Experimental data published in patent publication US20090099157A1, “TETRAHYDRO-PYRAZOLO-PYRIDINE THIOETHER MODULATORS OF CATHEPSIN S” (priority 2007, published 2009).

The chains behind the UniProt entries cited, without tags or fusion partners. Residues count along the entry.
UniProt P25774, 115-331: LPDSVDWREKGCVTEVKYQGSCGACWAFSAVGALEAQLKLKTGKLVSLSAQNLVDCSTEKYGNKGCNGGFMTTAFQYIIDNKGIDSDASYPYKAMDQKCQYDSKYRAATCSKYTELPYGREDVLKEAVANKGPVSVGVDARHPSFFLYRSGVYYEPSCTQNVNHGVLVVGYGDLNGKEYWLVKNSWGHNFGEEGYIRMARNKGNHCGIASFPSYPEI

biological target: Recombinant human cathepsin S (CatS) (Homo sapiens, UniProt P25774); experiment: biochemical

| Compound | IC50 [nM] |
| --- | --- |
| O=S(=O)(C1CC1)N1CCc2c(c(-c3ccc(C(F)(F)F)c(SCCN4CCC(F)CC4)c3)nn2C[C@@H](O)CN2CCCCC2)C1 [Example 547, (2S)-1-{5-(Cyclopropylsulfonyl)-3-[3-{[2-(4-fluoropiperidin-1-yl)ethyl]sulfanyl}-4-(trifluoromethyl)phenyl]-4,5,6,7-tetrahydro-1H-pyrazolo[4,3-c]pyridin-1-yl}-3-piperidin-1-ylpropan-2-ol] | 230 |
| CN(C)c1ccc(C(=O)NCCSc2cc(-c3nn(CC(O)CN4CCC(N5CCCC5=O)CC4)c4c3CN(S(C)(=O)=O)CC4)ccc2C(F)(F)F)cc1 (stereo not shown) [Example 120, 4-Dimethylamino-N-{2-[5-(1-{2-hydroxy-3-[4-(2-oxo-pyrrolidin-1-yl)-piperidin-1-yl]-propyl}-5-methanesulfonyl-4,5,6,7-tetrahydro-1H-pyrazolo[4,3-c]pyridin-3-yl)-2-trifluoromethyl-phenylsulfanyl]-ethyl}-benzamide] | 530 |
| CS(=O)(=O)N1CCc2c(c(-c3ccc(C(F)(F)F)c(SCCN4CCC(F)(F)C4)c3)nn2CC(O)CN2CCC(Oc3ncccn3)CC2)C1 (stereo not shown) [Example 820, 1-{3-[3-{[2-(3,3-Difluoropyrrolidin-1-yl)ethyl]sulfanyl}-4-(trifluoromethyl)phenyl]-5-(methylsulfonyl)-4,5,6,7-tetrahydro-1H-pyrazolo[4,3-c]pyridin-1-yl}-3-[4-(pyrimidin-2-yloxy)piperidin-1-yl]propan-2-ol] | 65 |
| CS(=O)(=O)N1CCc2c(c(-c3ccc(C(F)(F)F)c(SCCN4CCC(O)CC4)c3)nn2CC(O)CN2CCN(c3ccccc3)CC2)C1 (stereo not shown) [Example 712, 1-(2-{[5-{1-[2-Hydroxy-3-(4-phenylpiperazin-1-yl)propyl]-5-(methylsulfonyl)-4,5,6,7-tetrahydro-1H-pyrazolo[4,3-c]pyridin-3-yl}-2-(trifluoromethyl)phenyl]sulfanyl}ethyl)piperidin-4-ol] | 55 |
| CS(=O)(=O)N1CCc2c(c(-c3ccc(Cl)c([S+]([O-])Cc4ccccc4)c3)nn2CCCN2CCOCC2)C1 (stereo not shown) [Example 143, 3-(4-Chloro-3-phenylmethanesulfinyl-phenyl)-5-methanesulfonyl-1-(3-morpholin-4-yl-propyl)-4,5,6,7-tetrahydro-1H-pyrazolo[4,3-c]pyridine] | 1200 |
| CS(=O)(=O)N1CCc2c(c(-c3ccc(C(F)(F)F)c(SCCN4CCCC4)c3)nn2CC(O)CN2CCC(N3CCCCC3)CC2)C1 (stereo not shown) [Example 640, 1-(1,4′-Bipiperidin-1′-yl)-3-[5-(methylsulfonyl)-3-{3-[(2-pyrrolidin-1-ylethyl)sulfanyl]-4-(trifluoromethyl)phenyl}-4,5,6,7-tetrahydro-1H-pyrazolo[4,3-c]pyridin-1-yl]propan-2-ol] | 630 |
| O=C(CSc1cc(-c2nn(CC(O)CN3CCCCC3)c3c2CNCC3)ccc1C(F)(F)F)N1CCCC1 (stereo not shown) [Example 272, 1-(3-{3-[(2-Oxo-2-pyrrolidin-1-ylethyl)sulfanyl]-4-(trifluoromethyl)phenyl}-4,5,6,7-tetrahydro-1H-pyrazolo[4,3-c]pyridin-1-yl)-3-piperidin-1-ylpropan-2-ol] | 3580 |
| CS(=O)(=O)N1CCc2c(c(-c3ccc(C(F)(F)F)c(SCCN4CCC(N5CCCC5)CC4)c3)nn2CC(O)CN2CCC(O)(c3ccccc3)CC2)C1 (stereo not shown) [Example 881, 1-(2-Hydroxy-3-{5-(methylsulfonyl)-3-[3-{[2-(4-pyrrolidin-1-ylpiperidin-1-yl)ethyl]sulfanyl}-4-(trifluoromethyl)phenyl]-4,5,6,7-tetrahydro-1H-pyrazolo[4,3-c]pyridin-1-yl}propyl)-4-phenylpiperidin-4-ol] | 840 |
| CS(=O)(=O)N1CCc2c(c(-c3ccc(C(F)(F)F)c(SCC(=O)N4CCCCC4)c3)nn2CCCN2CCC(N3CCCC3=O)CC2)C1 [Example 93, 1-[1-(3-{5-Methanesulfonyl-3-[3-(2-oxo-2-piperidin-1-yl-ethylsulfanyl)-4-trifluoromethyl-phenyl]-4,5,6,7-tetrahydro-pyrazolo[4,3-c]pyridin-1-yl}-propyl)-piperidin-4-yl]-pyrrolidin-2-one] | 80 |
| CS(=O)(=O)N1CCc2c(c(-c3ccc(C(F)(F)F)c(SCC(=O)N4CC[C@@H](O)C4)c3)nn2CC(O)CN2CCC(NC(=O)CO)CC2)C1 (stereo partly drawn) [Example 697, 2-Hydroxy-N-[1-(2-hydroxy-3-{3-[3-({2-[(3R)-3-hydroxypyrrolidin-1-yl]-2-oxoethyl}sulfanyl)-4-(trifluoromethyl)phenyl]-5-(methylsulfonyl)-4,5,6,7-tetrahydro-1H-pyrazolo[4,3-c]pyridin-1-yl}propyl)piperidin-4-yl]acetamide] | 65 |
| CS(=O)(=O)N1CCc2c(c(-c3ccc(C(F)(F)F)c(SCCN4CCCCC4)c3)nn2CC(O)CN2CCC(c3ccncc3)CC2)C1 (stereo not shown) [Example 660, 1-[5-(Methylsulfonyl)-3-{3-[(2-piperidin-1-ylethyl)sulfanyl]-4-(trifluoromethyl)phenyl}-4,5,6,7-tetrahydro-1H-pyrazolo[4,3-c]pyridin-1-yl]-3-(4-pyridin-4-ylpiperidin-1-yl)propan-2-ol] | 25 |
| CS(=O)(=O)N1CCc2c(c(-c3ccc(C(F)(F)F)c(SCCN4CCC(F)CC4)c3)nn2CC(O)CN2CCN(c3ccccc3C#N)CC2)C1 (stereo not shown) [Example 829, 2-[4-(3-{3-[3-{[2-(4-Fluoropiperidin-1-yl)ethyl]sulfanyl}-4-(trifluoromethyl)phenyl]-5-(methylsulfonyl)-4,5,6,7-tetrahydro-1H-pyrazolo[4,3-c]pyridin-1-yl}-2-hydroxypropyl)piperazin-1-yl]benzonitrile] | 10 |
| CN(C)c1ccc(NC(=O)N2CCc3c(c(-c4ccc(C(F)(F)F)c(SCCN5CCC(F)CC5)c4)nn3C[C@@H](O)CN3CCCCC3)C2)cc1 [Example 763, N-[4-(Dimethylamino)phenyl]-3-[3-{[2-(4-fluoropiperidin-1-yl)ethyl]sulfanyl}-4-(trifluoromethyl)phenyl]-1-[(2S)-2-hydroxy-3-piperidin-1-ylpropyl]-1,4,6,7-tetrahydro-5H-pyrazolo[4,3-c]pyridine-5-carboxamide] | 230 |
| O=C(CSc1cc(-c2nn(CC(O)CN3CCc4ccccc4C3)c3c2CNCC3)ccc1C(F)(F)F)N1CCCC1 (stereo not shown) [Example 313, 1-(3,4-Dihydroisoquinolin-2(1H)-yl)-3-(3-{3-[(2-oxo-2-pyrrolidin-1-ylethyl)sulfanyl]-4-(trifluoromethyl)phenyl}-4,5,6,7-tetrahydro-1H-pyrazolo[4,3-c]pyridin-1-yl)propan-2-ol] | 1820 |
| CS(=O)(=O)N1CCc2c(c(-c3ccc(C(F)(F)F)c(SCCN4CCCCC4)c3)nn2CC(O)CN2CCCC2)C1 (stereo not shown) [Example 161, 1-[5-(Methylsulfonyl)-3-{3-[(2-piperidin-1-ylethyl)sulfanyl]-4-(trifluoromethyl)phenyl}-4,5,6,7-tetrahydro-1H-pyrazolo[4,3-c]pyridin-1-yl]-3-pyrrolidin-1-ylpropan-2-ol] | 230 |
| NC(=O)C1CCN(CC(O)Cn2nc(-c3ccc(C(F)(F)F)c(SCC(=O)N4CCCC4)c3)c3c2CCNC3)CC1 (stereo not shown) [Example 307, 1-[2-Hydroxy-3-(3-{3-[(2-oxo-2-pyrrolidin-1-ylethyl)sulfanyl]-4-(trifluoromethyl)phenyl}-4,5,6,7-tetrahydro-1H-pyrazolo[4,3-c]pyridin-1-yl)propyl]piperidine-4-carboxamide] | 1130 |
| CS(=O)(=O)N1CCc2c(c(-c3ccc(C(F)(F)F)c(SCC(=O)N4CC[C@H](O)C4)c3)nn2CC(O)CN2CCCCC2)C1 (stereo partly drawn) [Example 389, (3S)-1-[({5-[1-(2-Hydroxy-3-piperidin-1-ylpropyl)-5-(methylsulfonyl)-4,5,6,7-tetrahydro-1H-pyrazolo[4,3-c]pyridin-3-yl]-2-(trifluoromethyl)phenyl}sulfanyl)acetyl]pyrrolidin-3-ol] | 220 |
| CS(=O)(=O)N1CCc2c(c(-c3ccc(C(F)(F)F)c(SCCN4CCOCC4)c3)nn2CC(O)CN2CCN(c3ncccc3Cl)CC2)C1 (stereo not shown) [Example 813, 1-[4-(3-Chloropyridin-2-yl)piperazin-1-yl]-3-[5-(methylsulfonyl)-3-{3-[(2-morpholin-4-ylethyl)sulfanyl]-4-(trifluoromethyl)phenyl}-4,5,6,7-tetrahydro-1H-pyrazolo[4,3-c]pyridin-1-yl]propan-2-ol] | 55 |
| CC1CCN(CCSc2cc(-c3nn(CCCN4CCC(N5CCCC5=O)CC4)c4c3CN(S(C)(=O)=O)CC4)ccc2C(F)(F)F)CC1 [Example 10, 1-{1-[3-(5-Methanesulfonyl-3-{3-[2-(4-methyl-piperidin-1-yl)-ethylsulfanyl]-4-trifluoromethyl-phenyl}-4,5,6,7-tetrahydro-pyrazolo[4,3-c]pyridin-1-yl)-propyl]-piperidin-4-yl}-pyrrolidin-2-one] | 110 |
| CS(=O)(=O)N1CCc2c(c(-c3ccc(C(F)(F)F)c(SCCN4CCOC(CO)C4)c3)nn2CC(O)CN2CCC(O)(c3ccccn3)CC2)C1 (stereo not shown) [Example 844, 1-(2-Hydroxy-3-{3-[3-({2-[2-(hydroxymethyl)morpholin-4-yl]ethyl}sulfanyl)-4-(trifluoromethyl)phenyl]-5-(methylsulfonyl)-4,5,6,7-tetrahydro-1H-pyrazolo[4,3-c]pyridin-1-yl}propyl)-4-pyridin-2-ylpiperidin-4-ol] | 55 |
| CS(=O)(=O)N1CCc2c(c(-c3ccc(C(F)(F)F)c(SCCN4CCC(F)(F)C4)c3)nn2CC(O)CN2CCC(N3CCCC3=O)CC2)C1 (stereo not shown) [Example 769, 1-[1-(3-{3-[3-{[2-(3,3-Difluoropyrrolidin-1-yl)ethyl]sulfanyl}-4-(trifluoromethyl)phenyl]-5-(methylsulfonyl)-4,5,6,7-tetrahydro-1H-pyrazolo[4,3-c]pyridin-1-yl}-2-hydroxypropyl)piperidin-4-yl]pyrrolidin-2-one] | 35 |
| CC(=O)NC1CCN(CC(O)Cn2nc(-c3ccc(C(F)(F)F)c(SCCN4CCC(F)(F)C4)c3)c3c2CCN(S(C)(=O)=O)C3)C1 (stereo not shown) [Example 624, N-[1-(3-{3-[3-{[2-(3,3-Difluoropyrrolidin-1-yl)ethyl]sulfanyl}-4-(trifluoromethyl)phenyl]-5-(methylsulfonyl)-4,5,6,7-tetrahydro-1H-pyrazolo[4,3-c]pyridin-1-yl}-2-hydroxypropyl)pyrrolidin-3-yl]acetamide] | 290 |
